Assay results reported in patent US7112600B1, “Fused-ring compounds and use thereof as drugs” (Japan Tobacco Inc., priority 1999, dated 2006).
Counter-ions that a name gives are not always drawn.

Amino acid sequences for entries named in this document (tags omitted). Residues count along the entry.
UniProt P26663, 2420-3010: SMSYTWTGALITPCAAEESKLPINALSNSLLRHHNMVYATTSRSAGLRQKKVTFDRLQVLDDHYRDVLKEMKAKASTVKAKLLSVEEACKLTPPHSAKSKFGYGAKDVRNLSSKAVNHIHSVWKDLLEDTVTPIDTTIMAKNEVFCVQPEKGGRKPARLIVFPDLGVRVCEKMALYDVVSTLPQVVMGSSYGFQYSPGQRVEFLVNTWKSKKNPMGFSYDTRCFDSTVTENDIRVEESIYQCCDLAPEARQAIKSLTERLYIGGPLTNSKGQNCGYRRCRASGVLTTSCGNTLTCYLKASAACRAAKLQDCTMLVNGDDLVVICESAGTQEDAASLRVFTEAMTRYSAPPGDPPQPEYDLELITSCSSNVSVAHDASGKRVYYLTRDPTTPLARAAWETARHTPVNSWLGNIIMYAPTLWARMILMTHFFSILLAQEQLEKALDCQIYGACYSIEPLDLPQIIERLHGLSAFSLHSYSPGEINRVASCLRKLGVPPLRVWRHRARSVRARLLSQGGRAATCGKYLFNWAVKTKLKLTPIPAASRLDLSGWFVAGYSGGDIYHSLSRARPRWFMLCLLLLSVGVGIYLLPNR

Target: T1, HCV polymerase (Hepatitis C virus genotype 1b, UniProt P26663)
T1 construct: a region encoding NS5B (591 amino acids; J Virol 1991 Mar, 65(3), 1105-13) was amplified by PCR; 6 His (N); made in house; host or cells: Escherichia coli
Experiment: biochemical
Conditions: read-out: HCV polymerase inhibitory activity IC50
Text: The evaluation of the HCV polymerase inhibitory activity of the compound of the present invention is explained in the following. This polymerase is an enzyme coded for by the non-structural protein region called NS5B on the RNA gene of HCV (EMBO J., 15:12-22, 1996).
i) Preparation of enzyme (HCV polymerase)
Using, as a template, a cDNA clone corresponding to the full length RNA gene of HCV BK strain obtained from the blood of a patient with hepatitis C, a region encoding NS5B (591 amino acids; J Virol 1991 Mar, 65(3), 1105-13) was amplified by PCR. The objective gene was prepared by adding a 6 His tag {base pair encoding 6 continuous histidine (His)} to the 5′ end thereof and transformed to Escherichia coli. The Escherichia coli capable of producing the objective protein was cultured. The obtained cells were suspended in a buffer solution containing a surfactant and crushed in a microfluidizer. […]
10% Trichloroacetic acid at 4° C. and 1% sodium pyrophosphate solution (150 μl) were added to this reaction mixture to stop the reaction. […] A liquid scintillation cocktail (Packard) was added and the radioactivity of RNA synthesized by the enzyme reaction was measured on a liquid scintillation counter.
The HCV polymerase inhibitory activity (IC50) of the compound of the present invention was calculated from the values of radioactivity of the enzyme reaction with and without the test substance. […]

Q: O=C(O)c1ccc2c(c1)nc(-c1ccc(OC[C@@H]3CCCN3c3ccccc3)cc1)n2C1CCCCC1 [Example 204, 1-cyclohexyl-2-{4-[{(2S)-1-phenyl-2-pyrrolidinyl}methoxy]-phenyl}benzimidazole-5-carboxylic acid hydrochloride] was tested. Which IC50 did it give?
A: The IC50 was 160 nM.
